ChEMBL document CHEMBL3102699, “Synthesis and evaluation of 4-substituted piperidines and piperazines as balanced affinity μ opioid receptor (MOR) agonist/δ opioid receptor (DOR) antagonist ligands” (Bioorg Med Chem Lett, 2014)
Activity calls are given as the source filed them. The calls are words filed in the database; no cut-off is given here.

Protein sequences, listed by entry. Tags and fused reporters are not part of them. Lines headed by an entry give the natural chain unless they say otherwise; changes in a name come on top.
UniProt P41145: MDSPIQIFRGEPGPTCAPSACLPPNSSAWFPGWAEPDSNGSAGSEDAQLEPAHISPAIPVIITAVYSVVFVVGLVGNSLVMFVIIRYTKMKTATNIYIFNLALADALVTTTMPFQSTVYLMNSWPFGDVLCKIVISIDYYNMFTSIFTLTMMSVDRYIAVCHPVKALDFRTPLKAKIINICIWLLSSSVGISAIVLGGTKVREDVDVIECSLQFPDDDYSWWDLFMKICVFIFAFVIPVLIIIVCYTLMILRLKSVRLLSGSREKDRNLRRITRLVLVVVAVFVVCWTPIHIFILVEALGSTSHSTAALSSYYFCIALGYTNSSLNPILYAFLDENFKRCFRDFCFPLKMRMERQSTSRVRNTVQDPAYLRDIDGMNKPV
UniProt P33535, whole entry: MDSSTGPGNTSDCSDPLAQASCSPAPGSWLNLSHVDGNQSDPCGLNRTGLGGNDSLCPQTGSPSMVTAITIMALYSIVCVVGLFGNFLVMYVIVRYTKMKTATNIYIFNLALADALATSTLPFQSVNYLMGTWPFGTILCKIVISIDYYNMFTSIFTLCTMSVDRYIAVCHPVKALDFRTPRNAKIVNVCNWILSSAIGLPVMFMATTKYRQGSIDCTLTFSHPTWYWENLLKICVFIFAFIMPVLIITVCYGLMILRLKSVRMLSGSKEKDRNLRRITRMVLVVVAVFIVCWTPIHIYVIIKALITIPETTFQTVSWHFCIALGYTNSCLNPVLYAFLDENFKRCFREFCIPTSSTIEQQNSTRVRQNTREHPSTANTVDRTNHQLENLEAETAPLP

Columns and labels:
[1] = target: Kappa-type opioid receptor (Homo sapiens, UniProt P41145); assay: Agonist activity at human kappa opioid receptor expressed in CHO cells assessed as stimulation of [35S]-GTPgammaS binding at 10 uM after 1 hr by liquid scintillation counting analysis relative to U69,593; format: functional, cell-based
[2] = target: Mu-type opioid receptor (Rattus norvegicus) (UniProt P33535); assay: Agonist activity at rat mu opioid receptor expressed in rat C6 cells assessed as stimulation of [35S]-GTPgammaS binding at 10 uM after 1 hr by liquid scintillation counting analysis relative to DAMGO; format: functional, cell-based

## Cc1cc(O)cc(C)c1C[C@H](N)C(=O)N1CCC(CCCc2ccccc2)CC1
[1]
  %max: inactive

## Cc1cc(O)cc(C)c1C[C@H](N)C(=O)N1CCC(Cc2ccccc2)CC1
[2]
  %max: inactive
[1]
  %max: inactive

## Cc1cc(O)cc(C)c1C[C@H](N)C(=O)N1CCC(Cc2ccccc2)c2ccccc21 (some centres undefined)
[2]
  %max: 11%
[1]
  %max: inactive

## Cc1cc(O)cc(C)c1C[C@H](N)C(=O)N1CCN(CCCc2ccccc2)CC1
[1]
  %max: inactive

## Cc1cc(O)cc(C)c1C[C@H](N)C(=O)N1CCN(CCC(c2ccccc2)c2ccccc2)CC1
[2]
  %max: inactive
[1]
  %max: inactive

## Cc1cc(O)cc(C)c1C[C@H](N)C(=O)N1CCN(CCCCc2ccccc2)CC1
[1]
  %max: 12%
